Data: ChEMBL document CHEMBL3585263, “Novel Octahydropyrrolo[3,4-c]pyrroles Are Selective Orexin-2 Antagonists: SAR Leading to a Clinical Candidate” (J Med Chem, 2015)

Chains of the proteins cited; added tags and fusions are not shown.
UniProt O43614, whole entry: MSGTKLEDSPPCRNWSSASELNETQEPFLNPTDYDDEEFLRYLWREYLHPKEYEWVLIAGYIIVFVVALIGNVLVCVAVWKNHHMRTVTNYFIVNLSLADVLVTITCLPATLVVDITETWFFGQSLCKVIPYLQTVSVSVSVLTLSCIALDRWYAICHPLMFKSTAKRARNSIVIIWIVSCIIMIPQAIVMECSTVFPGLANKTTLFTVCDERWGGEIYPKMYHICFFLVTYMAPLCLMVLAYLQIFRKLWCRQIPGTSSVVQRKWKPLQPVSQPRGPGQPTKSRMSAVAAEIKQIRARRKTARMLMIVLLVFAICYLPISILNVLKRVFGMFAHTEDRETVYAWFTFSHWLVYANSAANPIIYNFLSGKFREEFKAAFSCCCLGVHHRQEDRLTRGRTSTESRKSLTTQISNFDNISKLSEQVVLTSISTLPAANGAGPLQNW
UniProt O43613, whole entry: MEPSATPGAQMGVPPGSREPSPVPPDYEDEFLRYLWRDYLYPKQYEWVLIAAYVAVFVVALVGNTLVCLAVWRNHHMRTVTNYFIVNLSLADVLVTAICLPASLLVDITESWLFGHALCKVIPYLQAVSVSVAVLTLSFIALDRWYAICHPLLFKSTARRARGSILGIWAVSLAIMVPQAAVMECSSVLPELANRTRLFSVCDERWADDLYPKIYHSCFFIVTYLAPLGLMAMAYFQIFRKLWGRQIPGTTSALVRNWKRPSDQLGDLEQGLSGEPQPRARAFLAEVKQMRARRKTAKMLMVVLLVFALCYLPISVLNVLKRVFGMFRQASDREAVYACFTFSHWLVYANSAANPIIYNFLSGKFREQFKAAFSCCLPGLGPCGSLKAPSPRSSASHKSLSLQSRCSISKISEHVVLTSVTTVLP

Key:
[1] = molecular target: Orexin receptor type 2 (Homo sapiens, UniProt O43614)
[2] = molecular target: Orexin/Hypocretin receptor type 1 (Homo sapiens, UniProt O43613)

Row | Ki [1] | SMILES | Ki [2]
1 | 8 nM | Cc1cc(C)nc(N2C[C@H]3CN(C(=O)c4c(C)cccc4-n4nccn4)C[C@H]3C2)n1 | –
2 | – | Cc1cc(C)nc(N2C[C@H]3CN(C(=O)c4c(F)cccc4-n4nccn4)C[C@H]3C2)n1 [SELTOREXANT] | 800 nM
